Experimental data: PubChem BioAssay AID2129 (The Scripps Research Institute Molecular Screening Center, 2009)
The entries are a selection whose mix differs from that of the whole data set. The source made the active and inactive calls.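 The calls were made as follows: active = inhibition above the mean of all tested compounds plus 3 SD, cutoff set per campaign (cut at about 30% in these data); inactive = the rest.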

Sequences of proteins named here, by UniProt entry; tags and fusion partners are left off.
UniProt Q07817, whole entry: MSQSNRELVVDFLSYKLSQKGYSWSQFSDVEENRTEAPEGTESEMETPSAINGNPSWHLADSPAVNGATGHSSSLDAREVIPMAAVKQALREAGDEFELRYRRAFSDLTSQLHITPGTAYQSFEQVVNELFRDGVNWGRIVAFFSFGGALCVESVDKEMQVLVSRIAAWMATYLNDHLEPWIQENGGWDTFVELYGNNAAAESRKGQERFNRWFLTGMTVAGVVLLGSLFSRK

molecular target: Bcl-2-like protein 1 (Homo sapiens) (UniProt Q07817); assay: inhibitors of human Bcl-xL, primary screen, biochemical, fluorescence polarization, HTS (AID 2129); conditions: GST-Bcl-xL / FITC-Bim BH3 peptide fluorescence polarization; at 10.9 µM; active compounds read high;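 also: 0% = DMSO wells and 100% = unlabeled Bim-BH3 peptide competitor; inhibitors lower millipolarization by displacing the labeled peptide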

Structure (SMILES)	inhibition
O=C(NCC1(N2CCCCC2)CCCCC1)c1ccc(F)cc1	inactive: 0.5%
CCOc1ccc(C)cc1CN(CCCl)CCCl	inactive: 9.58%
COc1ccc(Cl)cc1C(=O)NCC1(N2CCOCC2)CCCCC1	inactive: 1.28%
O=C(OC1CN2CCC1CC2)C1c2ccccc2Oc2ccccc21 (stereo unspecified)	inactive: 27.4%
O=C(NCC1(N2CCCCC2)CCCCC1)c1ccc(Cl)s1	inactive: -3.15%
N#CC1(Nc2ccccc2)CCN(Cc2ccccc2)CC1	inactive: 3.13%
CCOC(=O)N1CCC(Nc2ccc(OC)cc2)CC1	inactive: 8.99%
Cc1cc(C)cc(N(C(=O)c2ccccc2)C2CCN(C(=O)OC(C)(C)C)CC2)c1	inactive: 5.32%
O=C(NCC1(N2CCCCC2)CCCCC1)c1ccc(Cl)nc1	inactive: -15.3%
O=C(NCC1(N2CCOCC2)CCCCC1)c1cc2ccccc2o1	inactive: -3.89%
CSc1ccccc1C(=O)NCC1(N2CCCCC2)CCCCC1	inactive: 6.9%
CC(C)(C)OC(=O)N1CCC(N(C(=O)c2ccccc2)c2ccc(F)cc2)CC1	inactive: -0.65%
COc1ccc(C(=O)NCC2(N3CCCCC3)CCCCC2)c(OC)c1OC	inactive: 2.05%
COc1ccc(C(=O)NCC2(N3CCCCC3)CCCCC2)cc1	inactive: 0.5%
O=C(NCC1(N2CCCCC2)CCCCC1)c1cccs1	inactive: -7.05%
O=C(NCC1(N2CCCCC2)CCCCC1)c1ccc(=O)[nH]c1	inactive: -1.35%

Structure (SMILES)	inhibition
O=C(NCC1(N2CCCCC2)CCCCC1)c1cncc(Br)c1	inactive: 0.62%
CN1CCC(Nc2cccc(F)c2)CC1	inactive: 3.59%
COc1cc(OC)c(C(=O)NCC2(N(C)C)CCCCC2)cc1OC	inactive: 2.76%
CC(C)c1ccc(NC2CCN(C(=O)OC(C)(C)C)CC2)cc1	inactive: 3.94%
CN(C)c1cccc(C(=O)NCC2(N3CCCCC3)CCCCC2)c1	inactive: 3.83%
COc1ccc(CN(CCCl)CCCl)cc1Cl	inactive: 1.94%
O=C(NCC1(N2CCOCC2)CCCCC1)c1cc(=O)[nH]c2ccccc12	inactive: -4.02%
COc1cc(C(=O)NCC2(N3CCCCC3)CCCCC2)ccc1OC(F)F	inactive: -7.86%
COc1ccc(NC2CCN(C(=O)OC(C)(C)C)CC2)cc1	inactive: 12.9%
CN1CCN(CCOC(=O)C(O)(c2ccccc2)c2ccccc2)CC1	inactive: 4.62%
O=C(NCC1(N2CCCCC2)CCCCC1)c1cccc(C(F)(F)F)c1	inactive: 3.03%
N#CC1(Nc2ccccc2)CCN(CCc2ccccc2)CC1	inactive: 7.04%
CCN1CCC(Nc2ccc(Cl)cc2)CC1	inactive: 5.66%
O=C(NCC1(N2CCCCC2)CCCCC1)c1cccc([N+](=O)[O-])c1	inactive: -10.8%
O=C(NCC1(N2CCCCC2)CCCCC1)c1ccc(OC(F)F)cc1	inactive: -4.42%
